# pKi: −log10 of the molar value.
# The chains behind the UniProt entries cited, without tags or fusion partners. Where a name states a change or a piece, a line headed by the entry shows the natural chain unless it says otherwise.
# UniProt P28335: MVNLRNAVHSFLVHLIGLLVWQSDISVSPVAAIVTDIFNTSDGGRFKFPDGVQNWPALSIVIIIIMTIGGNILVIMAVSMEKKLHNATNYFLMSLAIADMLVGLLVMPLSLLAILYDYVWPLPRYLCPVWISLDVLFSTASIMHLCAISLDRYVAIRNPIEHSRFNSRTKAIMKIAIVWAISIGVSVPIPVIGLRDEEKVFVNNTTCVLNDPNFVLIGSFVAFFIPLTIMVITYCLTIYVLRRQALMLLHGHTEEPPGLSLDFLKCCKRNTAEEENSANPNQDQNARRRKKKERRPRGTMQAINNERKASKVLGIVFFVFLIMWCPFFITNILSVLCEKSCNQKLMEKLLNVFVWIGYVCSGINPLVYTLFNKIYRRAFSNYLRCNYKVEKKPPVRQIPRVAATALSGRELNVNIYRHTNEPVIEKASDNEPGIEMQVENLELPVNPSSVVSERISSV
# UniProt P28223, whole entry: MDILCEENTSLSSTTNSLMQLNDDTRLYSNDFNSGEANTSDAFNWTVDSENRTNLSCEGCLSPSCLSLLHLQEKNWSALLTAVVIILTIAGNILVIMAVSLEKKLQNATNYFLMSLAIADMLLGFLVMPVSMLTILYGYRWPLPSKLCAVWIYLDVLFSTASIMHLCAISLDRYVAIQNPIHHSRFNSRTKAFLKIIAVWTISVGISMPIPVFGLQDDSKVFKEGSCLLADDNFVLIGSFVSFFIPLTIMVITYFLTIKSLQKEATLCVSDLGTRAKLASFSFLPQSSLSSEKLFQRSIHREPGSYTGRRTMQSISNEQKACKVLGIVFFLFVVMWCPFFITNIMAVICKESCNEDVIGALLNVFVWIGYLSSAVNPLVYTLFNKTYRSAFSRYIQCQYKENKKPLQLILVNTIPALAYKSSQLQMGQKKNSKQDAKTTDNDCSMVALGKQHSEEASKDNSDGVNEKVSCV
# UniProt P41595, whole entry: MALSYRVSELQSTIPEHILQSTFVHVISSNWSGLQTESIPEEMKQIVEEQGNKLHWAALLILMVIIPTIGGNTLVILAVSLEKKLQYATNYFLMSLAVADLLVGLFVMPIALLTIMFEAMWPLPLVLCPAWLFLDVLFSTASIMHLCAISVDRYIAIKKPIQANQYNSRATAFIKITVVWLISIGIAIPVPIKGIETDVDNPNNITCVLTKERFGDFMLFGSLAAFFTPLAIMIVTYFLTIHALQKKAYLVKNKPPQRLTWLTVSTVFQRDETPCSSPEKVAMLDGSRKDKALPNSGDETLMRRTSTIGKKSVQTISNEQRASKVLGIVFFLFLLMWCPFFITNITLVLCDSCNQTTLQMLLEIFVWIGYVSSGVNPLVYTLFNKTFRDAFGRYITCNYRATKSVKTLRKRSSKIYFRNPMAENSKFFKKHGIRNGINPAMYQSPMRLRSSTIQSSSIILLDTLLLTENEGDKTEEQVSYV
# What was measured:
# [1] = biological target: 5-hydroxytryptamine receptor 2C (Homo sapiens, UniProt P28335)
# [2] = biological target: 5-hydroxytryptamine receptor 2A (Homo sapiens, UniProt P28223)
# [3] = biological target: 5-hydroxytryptamine receptor 2B (Homo sapiens, UniProt P41595)
smiles,measurement,setting,value
Clc1cccc(N2CCNCC2)c1 [mCPP],pKi,[1],7.80
same,pKi,[2],7.07
same,pKi,[3],7.40
